PubChem AID 2061109: pyroptosis screen in mouse bone marrow macrophages, one dose (5 µM).
Target pathway: NLRP3 inflammasome, triggered by LPS and nigericin. Dead cells counted by propidium iodide.
Higher is more protection: 100% equals untreated cells, 0% the stimulated control, negative values set to 0. Active call (*): above 70%. Part of the library is listed.

smiles | inhibition (%)
CCOC(=O)/C(C#N)=C(\N)c1ccccc1 | 0.0
O=C(C=Cc1ccccc1)c1ccc(O)cc1O | 0.0
C=C1[C@H](OC(C)=O)[C@@H](OC(=O)c2ccccc2)[C@@H](OC(C)=O)C(C)(C)[C@H]2O[C@](O)([C@H](C)C2=O)[C@@]2(OC(C)=O)C[C@H](C)[C@H](OC(C)=O)[C@@H]2[C@H]1OC(C)=O | 70.7*
Cc1cc(Nc2ncc3c(n2)N(C)C(=O)N(c2cc(NC(=O)c4cccc(C(F)(F)F)c4)ccc2C)C3)n(C)n1 | 83.6*
CCCCN(CC)c1nc(C)nc2c1c(C)c(C)n2-c1c(C)cc(C)cc1C.Cl | 0.0
Cl.Cl.Nc1cc(COc2c(Cl)cc(C[C@H](N)C(=O)O)cc2Cl)c2oc(-c3ccccc3)nc2c1 | 57.0
CC(C(O)c1ccc(O)cc1)N1CCC(Cc2ccccc2)CC1 | 29.9
CC(C)Cn1c(=O)n(C)c(=O)c2[nH]cnc21 | 5.2
CCN(CC)CCNC(=O)c1ccc(N)cc1 | 70.5*
Cc1cccc(C2NC(=O)c3c(Cl)cccc3N2)c1 | 0.0
c1ccc(-c2oc3ncnc(NC[C@@H]4CCCO4)c3c2-c2ccccc2)cc1 | 60.1
O=c1[nH]cc(F)c(=O)[nH]1 | 0.0
COc1cc(C(C)=O)ccc1O | 0.0
CCCN1CCN(c2ccc(C(=O)NC3(C(=O)NCC#N)CCCCC3)cc2)CC1 | 20.5
Cc1cc(C)nc(N2CC3CN(C(=O)c4c(F)cccc4-n4nccn4)CC3C2)n1 | 0.0
CC(=O)O[C@H]1[C@H]2O[C@]23[C@@H]2CC[C@]4(O)C[C@@H](O)CC[C@]4(C)[C@H]2CC[C@]3(C)[C@H]1c1ccc(=O)oc1 | 0.8
Br.N#Cc1ccc(-c2csc(NN=C3CCCC3)n2)cc1 | 0.0
C=C(F)C(=O)N1CC(n2nc(-c3ccc(C(F)(F)F)cc3)c3cccnc32)C1 | 5.5
O=C(CC(CO)N1CCN(c2ccc(OC(F)(F)F)cc2)CC1)Nc1ccc(Cl)cc1 | 26.0
CCCCN1CCCCC1C(=O)Nc1c(C)cccc1C | 53.8
COc1cc2c(c(O)c1OC)C(=O)c1c(cc(C)c(O)c1OC)C2=O | 26.8
CCN(C(=O)c1cc(Cl)c(OCCN2CCN(C)CC2)c(Cl)c1O)c1ccccc1.Cl.Cl | 16.1
NS(=O)(=O)c1ccc(-n2nc(CCCNC(=O)Nc3ccc(C(F)(F)F)cc3)cc2-c2ccccc2)cc1 | 29.9
O=C(O)C(Cc1ccccc1)CN(O)C(=O)Cc1ccccc1 | 0.0
Cl.Cl.NCCNc1ncc(C(N)=O)c(Nc2cccc(C(F)(F)F)c2)n1 | 65.9
O=C(CC1(O)C(=O)Nc2c(Cl)ccc(Cl)c21)c1ccc(C2CC2)cc1 | 0.0
CC(C)n1cnnc1-c1cccc(NC(=O)c2cc3ccc(F)cc3[nH]2)n1 | 23.3
O=C(Cc1ccccc1)Oc1c(OC(=O)Cc2ccccc2)c(-c2ccc(O)cc2)c(O)c(O)c1-c1ccc(O)cc1 | 0.0
Cc1ccccc1C(=O)N1CCc2cc(-c3nc(NC(=O)Cc4ccc5c(c4)OCO5)sc3C)ccc21 | 26.3
CCCNC[C@]1(O)[C@H](C)O[C@@H](O[C@H]2[C@H](C)[C@@H](O[C@@H]3O[C@H](C)C[C@H](N(C)C)[C@H]3O)[C@](C)(O)C[C@@H](C)CN[C@H](C)[C@@H](O)[C@](C)(O)[C@@H](CC)OC(=O)[C@@H]2C)C[C@@]1(C)OC | 70.8*
Cc1ccc(-c2nnc(NC(=O)c3ccc(Br)s3)o2)cc1 | 3.5
Cc1occc(=O)c1[O][Ga]([O]c1c(C)occc1=O)[O]c1c(C)occc1=O | 0.0
C[C@@H]1[C@H](c2ccccc2)C[C@H](NC(=O)c2cnc3c(c2)C[C@@]2(C3)C(=O)Nc3ncccc32)C(=O)N1CC(F)(F)F | 12.6
CN[C@H](CC(N)=O)C(=O)NC(C(=O)N[C@@H]1C(=O)N2[C@@H]1SC(C)(C)[C@@H]2C(=O)O)c1ccc(O)cc1 | 0.0
COc1c2c(cc3oc(CO[C@@H]4O[C@H](CO)[C@@H](O)[C@H](O)[C@H]4O)cc(=O)c13)O[C@H](C(C)(C)O)C2 | 24.8
CS(=O)(=O)c1ccc(NC(=O)c2cc(C#N)c(Sc3c(Cl)cncc3Cl)s2)cc1 | 48.5
CNc1cc2[nH]c(=O)n(-c3ccc(NC(=O)NS(=O)(=O)c4ccc(Cl)s4)cc3)c(=O)c2cc1F | 39.2
CS(=O)(=O)O.O=C(Nc1cccc(Cl)c1)Nc1ncc(CCNc2ncnc3ccsc23)s1 | 0.0
Cc1onc(-c2c(Cl)cccc2Cl)c1CNc1cccc(C(=O)c2cn(CCCC(=O)O)c3ccccc23)c1 | 0.0
CCS(=O)(=O)c1ccc(CC(=O)Nc2ccc(C(C)(C)C(=O)Nc3ccc(F)cc3F)c(F)c2)cc1 | 0.0
C[C@@H]1OCC2(CCN(c3cnc(Sc4ccnc(N)c4Cl)c(N)n3)CC2)[C@@H]1N | 66.4
CNC(=O)c1ccc(Oc2ccc3c(c2)CCN(C2CCC2)CC3)nc1 | 39.9
CCC(C(=O)O)c1ccc(N2Cc3ccccc3C2=O)cc1 | 38.7
CCCCCN(CCCCC)C(=O)C(CCC(=O)[O-])NC(=O)c1ccc(Cl)c(Cl)c1.[Na+] | 55.2
Cc1cc2c(C(N)=O)cccc2n1-c1nc2c(c(NCc3ccccc3)n1)COCC2 | 0.0
Cc1noc(-c2ccc(-c3ccc(CC(=O)[O-])cc3)cc2)c1NC(=O)O[C@H](C)c1ccccc1.[Na+] | 43.4
Cn1cc2c3cc(C(=O)O)ccc3n(-c3ccc(C(F)(F)F)cc3)c2n1 | 0.0
COc1nccnc1NS(=O)(=O)c1cccc(Cl)c1Cl | 78.6*
COC(=O)C1=C(C)NC(C)=C(C(=O)OC)C1c1cccc(NC(=O)NCCCN2CCC(c3cccc(OC)c3)CC2)c1 | 0.0
CCS(=O)(=O)c1cc(Nc2ncc(F)c(N(Cc3ccccc3C#N)c3cc(CO)ccc3C)n2)ccc1N1CCN(C)CC1 | 0.0
CC(C)NCC(O)c1ccc([N+](=O)[O-])cc1.Cl | 0.0
Cn1nc(-c2cnc(N)c(-c3ccc(C(N)=O)c(F)c3)n2)nc1C1(c2ccccc2)CC1 | 0.0
NC(N)=Nc1nc(CSCCN=CNS(=O)(=O)c2ccc(Br)cc2)cs1 | 0.0
Cl.O=C(NCCCNc1nc(Nc2cccc(CN3CCOCC3)c2)ncc1C1CC1)C1CCC1 | 61.9
CCOC(=O)[C@H](C)C[C@@H](Cc1ccc(-c2ccccc2)cc1)NC(=O)CCC(=O)[O-].CCOC(=O)[C@H](C)C[C@@H](Cc1ccc(-c2ccccc2)cc1)NC(=O)CCC(=O)[O-].[Ca+2] | 65.1
CC(C)(C(=O)O)c1ccc(C(=O)CCCN2CCC(OC(c3ccccc3)c3ccccc3)CC2)cc1 | 0.6
CC[C@@](O)(C(=O)O)c1cc2n(c(=O)c1CO)Cc1cc3ccccc3nc1-2.[Na+] | 0.0
COc1cc2c(cc1OC(C)C)[C@H](c1ccc(Cl)cc1)N(c1ccc(N(C)CC3CCC(N4CCN(C)C(=O)C4)CC3)cc1)C(=O)C2 | 19.9
COc1ccc2c3c1O[C@H]1C[C@@H](O)CC[C@@]31CCN(C)C2 | 35.6
O=C(CBr)N1CC([N+](=O)[O-])([N+](=O)[O-])C1 | 57.1
CN(C)CCC=C1c2ccccc2CCc2ccccc21.Cl | 0.8
CS(=O)(=O)O.CS(=O)(=O)O.Cc1ccc(C(=O)Nc2ccc(CN3CCN(C)CC3)c(C(F)(F)F)c2)cc1C#Cc1cnc2[nH]ncc2c1 | 80.7*
CCN(C/C=C/C#CC(C)(C)C)Cc1cccc(OCC(C)(C)OCc2ccsc2)c1 | 0.0
CCc1c(C#N)c(S[C@@H](C(N)=O)c2ccccc2)nc(N(C)C)c1C#N | 0.0
CSc1ccc(C(=O)c2[nH]c(=O)[nH]c2C)cc1 | 62.0

Repeating the first 7 entries:

smiles,inhibition (%)
CCOC(=O)/C(C#N)=C(\N)c1ccccc1,0.0
O=C(C=Cc1ccccc1)c1ccc(O)cc1O,0.0
C=C1[C@H](OC(C)=O)[C@@H](OC(=O)c2ccccc2)[C@@H](OC(C)=O)C(C)(C)[C@H]2O[C@](O)([C@H](C)C2=O)[C@@]2(OC(C)=O)C[C@H](C)[C@H](OC(C)=O)[C@@H]2[C@H]1OC(C)=O,70.7*
Cc1cc(Nc2ncc3c(n2)N(C)C(=O)N(c2cc(NC(=O)c4cccc(C(F)(F)F)c4)ccc2C)C3)n(C)n1,83.6*
CCCCN(CC)c1nc(C)nc2c1c(C)c(C)n2-c1c(C)cc(C)cc1C.Cl,0.0
Cl.Cl.Nc1cc(COc2c(Cl)cc(C[C@H](N)C(=O)O)cc2Cl)c2oc(-c3ccccc3)nc2c1,57.0
CC(C(O)c1ccc(O)cc1)N1CCC(Cc2ccccc2)CC1,29.9